In patent US20160152708A1:

Key:
[1] = biological target: Lower affinity class of cell surface receptors for MIF on IFNγ-activated THP-1 monocytes; assay: flow cytometry, Scatchard analysis, Alexa-MIF (0-1.5 µM as trimer) on IFNγ-treated THP-1 cells at 4° C.
[2] = biological target: Higher affinity class of cell surface receptors for MIF on IFNγ-activated THP-1 monocytes; assay: as above
[3] = biological target: Lower affinity class of cell surface receptors for MIF on IFNγ-activated THP-1 monocytes; assay: flow cytometry, Scatchard analysis, Alexa-MIF on IFNγ-treated THP-1 cells at 4° C.
[4] = biological target: Higher affinity class of cell surface receptors for MIF on IFNγ-activated THP-1 monocytes; assay: as above

- Kd [1]: 350 nM
- Kd [2]: 37 nM
- sites per cell (sites per cell) [3]: 49000
- binding sites per cell (binding sites per cell) [4]: 31000
B1: Alexa 488-MIF conjugate (human recombinant MIF conjugated to Alexa 488) (ligand, UniProt P14174 2-115, looked up)
chain: PMFIVNTNVPRASVPDGFLSELTQQLAQATGKPPQYIAVHVVPDQLMAFGGSSEPCALCSLHSIGKIGGAQNRSYSKLLCGLLAERLRISPDRVYINYYDMNAANVGWNNSTFA
modifications: Alexa 488 dye conjugated; average ratio of dye ligand to MIF homotrimer was 1:3; site of attachment not stated
